Patent US9388170B2, “Substituted aminoquinazolines useful as kinases inhibitors” (TELIGENE LTD., priority 2012, dated 2016)

Columns and labels:
BT474 = assay: Cell proliferation assay (MTT), BT474; format: cell-based; conditions: Homo sapiens, BT-474, BT474 cells, 72 hours
Description: (§1) A Representative Number of Compounds were Assayed Against Different Cancer Cell Lines Such as A431, BT474, NCI—H1975, SK—OV-3, SK—Br-3 and A549 Using the Cell Proliferation Assays:
(§2) 1. 5×10^3 cells per well in 100 μl of medium were seeded in 96-well plate, here the medium contained 5% FBS
(§3) 2. 24 hours later, 100 μl fresh medium was added with various concentrations of compounds into each well, while the medium here was free of FBS.
(§4) 3. After the cells were treated with compounds for 72 hours, 20 μl MTT (5 mg/ml) was added into each well, and then the assay plate was incubated at 37° C. for 4 more hours.
(§5) 4. The assay plate was centrifuged at 800 g for 10 min. The medium was aspirated, 150 μl DMSO was added into each well. The plate was gently shaken for 10 min.
(§6) 5. The absorbance at 570 nm was measured on the plate reader.

A431 = assay: Cell proliferation assay (MTT), A431; format: cell-based; conditions: Homo sapiens, A-431, A431 cells, 72 hours
Description: as §1, §2, §3, §4, §5, §6

IC50 (BT474): 6.8 nM | IC50 (A431): 1790 nM
Structure (SMILES): C#Cc1cccc(Nc2ncnc3cc(O[C@H]4CCOC4)c(NC(=O)/C=C/CN(CC)CC)cc23)c1 [Compound 20, (S,E)-4-(diethylamino)-N-(4-((3-ethynylphenyl)amino)-7-((tetrahydrofuran-3-yl)oxy)quinazolin-6-yl)but-2-enamide]
